Source: patent US4322528A (priority 1979, dated 1982)

What was measured:
Tobacco Budworm Larvae = assay: Leaf feed (leaf dip), tobacco budworm larvae; conditions: @500 ppm
Housefly Adult = assay: Contact spray, housefly adult; conditions: @100 ppm
Cotton Aphid Adult = assay: Leaf dip, cotton aphid adult; type: in vivo; conditions: @10 ppm
Housefly Larvae = assay: 7-Day exposure, housefly larvae (soil mix); conditions: @40 ppm, first treatment sub-column (head is a drawing)
American Cockroach Nymph = assay: Contact spray, American cockroach nymph; type: in vivo; conditions: @250 ppm
[1] = Stability of dimer / dimer complex
[2] = test system: Parathion-resistant Two-spotted Spider Mite Egg; assay: Leaf dip, parathion-resistant two-spotted spider mite, egg; conditions: @40 ppm

Compound	Tobacco Budworm Larvae, Leaf Feed, % control @ ppm (Tobacco Budworm Larvae) [%]	Housefly Adult, Contact Spray, % control @ ppm (Housefly Adult) [%]	Cotton Aphid Adult, Leaf Dip, % Control @ ppm (Cotton Aphid Adult) [%]	7-Day Exposure Housefly Larvae Treatment, % control @ ppm (Housefly Larvae) [%]	American Cockroach Nymph, Contact Spray, % control @ ppm (American Cockroach Nymph) [%]	Stability: t1/2 ([1]; 25°) [h]	regeneration of pentachloro-α-pyrrolenine (PCP) after standing ([1]; after standing at 25°, UV (Et2 O)) [%]	Parathion-resistant Two-spotted Spider Mite, Egg, % control @ ppm [2] [%]
1-aza-6-methloxycarbonyl-2,3,4,7,7-pentachlorobicyclo[2.2.1]hept-2-ene	13	26	36	13				
ClC1(Cl)N2C3(Cl)C(Cl)(Cl)N4C1(Cl)C1(Cl)C4(Cl)C3(Cl)C21Cl (stereo not shown)		73		47	15	220	99.1	21
